Experimental data taken from publication PMC4415972.
pKd: −log10 of the molar value.

Target: synaptic membrane proteins in SMPL Nanodiscs (immobilised on magnetic beads)
Experiment: ELISA; magnetic bead-based: SMPL Nanodiscs immobilised through the His tag of MSP on Dynabeads; PBS with 0.1% BSA and 25 mM imidazole; AβOs 1 h at 37°C; bound AβOs detected by NU2 antibody or through biotin (Vectastain) with colorimetric HRP substrate; nonspecific binding measured with excess ATA; Kd as Aβ monomer equivalent

pKd: 7.04
Substance: Aβ oligomers (AβOs) prepared from Aβ1–42 (from UniProt P05067 672-713) (peptide)
